Screening results deposited in PubChem by National Center for Advancing Translational Sciences (NCATS).
This is a sample that favours compounds with a hit; in the whole collection about 13% have one here.
ALDH1A1 inh: blocks purified human ALDH1A1 activity | Potency, µM (titrated, usually from 75.3 µM), actives largely listed as inhibitors | AID 1030 | hit rate 7.3% among 220,000 | Purified ALDH1A1, NADH fluorescence, propionaldehyde substrate | P00352; active means well fitted inhibition curve with a large enough effect, not every such curve was filed as active; inconclusive means small, poorly fitted or top-dose-only effect, or another doubt; inactive means no such curve, though single readings can be large or run the other way
JMJD2E inh: inhibitors of human JMJD2E histone demethylase; AID 2147; JMJD2E catalytic domain, FDH-coupled NADH fluorescence (FDH is formaldehyde dehydrogenase); hit rate 1.6% among 230,000; B2RXH2; Potency, µM (titrated, usually from 57.1 µM), hits mostly inhibitors; active means well fitted inhibition curve with a large enough effect, not every such curve was filed as active; inconclusive means small, poorly fitted or top-dose-only effect, or another doubt; inactive means no such curve, though single readings can be large or run the other way; further: nearly all actives have a fitted effect of over 50% in size
LMNA splice mod: modulators of lamin A splicing. Potency, µM (highest dose often 46.1 µM), actives largely listed as inhibitors. hit rate 0.01% among 200,000. AID 1487. HeLa LMNA splicing GFP/RFP minigene ratio, 48 h; active means well fitted inhibition curve with a large enough effect in the signal ratio, with a control signal flat, not every such curve was filed as active; inconclusive means small, poorly fitted or top-dose-only effect, or effect the other way, or a change in a side signal; the % refers to the signal ratio
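Read-out is the ratio of GFP to DsRed2 object intensity, acquired by 488 nm laser-scanning cytometry on HeLa lamin A-EGFP minigene reporter cells. Compound incubation 48 hrs at 37 °C in Opti-MEM with 2% FBS; DMSO 0.5% final.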
miR-21 reporter: raises the signal of a miR-21 reporter | HeLa miR-21 FLuc reporter, luciferase, 48 h | Potency, µM (highest dose often 38.3 µM) | 340,000 tested, under 10 active | AID 2288; active = well fitted rising curve with a large enough effect; inconclusive = small, poorly fitted or top-dose-only effect; inactive = no such curve, though single readings can be large or run the other way;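 also: miR-21 action dims this reporter so a rising signal means less miR-21 action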
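Compounds were titrated across several concentrations (up to approximately 40 uM) and incubated 48 hours with HeLa miR-21-FLuc reporter cells (miR-21 target sequence downstream of FLuc, endogenous miR-21). Readout was firefly luciferase luminescence after lytic detection reagent.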
Sfp PPTase inh: inhibitors of Bacillus subtilis Sfp phosphopantetheinyl transferase | Q9F4F7 | Biochemical Sfp PPTase activity, qHTS | Potency, µM, actives largely listed as inhibitors | hit rate 3.5% among 310,000 | AID 1490;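 further: the enzyme is Sfp with the accession as filed and its product quenches rhodamine fluorescence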
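Sfp 15 nM + cpd, 15 min RT; start w/ rhodamine-CoA 5 uM, BHQ-2-YbbR 12.5 uM (final); 50 mM Hepes pH 7.6, 10 mM MgCl2, 0.01% NP-40, 0.01% BSA; read 525/598 nm at 0 and 30 min.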
G9a inh: G9a (human) methyltransferase inhibition | hit rate 8.8% among 350,000 | G9a H3K9 monomethylation, AlphaScreen, 2 h | Potency, µM (top dose mostly 102 µM), hits mostly inhibitors | AID 504332 | Q96KQ7; further: nearly all actives have a fitted effect of over 75% in size
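Step 1: enzyme (final 20 nM) with compound, 15 min RT. Step 2: substrate peptide 500 nM and SAM 20 uM, 2 h RT. Step 3: anti-H3K9me1 antibody and AlphaScreen beads, 10 min, then plate read.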
Numbers stand for hits. Unless noted, the call rests on the fitted dose curve; in most records, active means well fitted curve in the direction sought with a large enough effect; inconclusive means small, poorly fitted or top-dose-only effect, or another doubt; inactive means no such curve, though single readings can be large; an effect the other way counts as inactive or inconclusive.

Results for CCC(C(=O)NC1CCCC1)N(C(=O)Cn1nnc(-c2ccc(C)o2)n1)c1ccc(OC)cc1 (stereo not drawn) ?
miR-21 reporter: inactive; Sfp PPTase inh: inactive; G9a inh: inactive

What do the screens show for `CCOc1ccc(N(CC(=O)NC2CCCCC2)C(=O)Cn2nnc(-c3ccc(C)o3)n2)cc1`?
miR-21 reporter: inactive; Sfp PPTase inh: inactive; G9a inh: 45µM

Results for CCC(C(=O)NC1CCCC1)N(C(=O)Cn1nnc(-c2ccc(C)o2)n1)C(C)(C)C (stereo not drawn) ?
ALDH1A1 inh: inconclusive; JMJD2E inh: inactive; LMNA splice mod: inactive; miR-21 reporter: inactive; Sfp PPTase inh: inconclusive; G9a inh: 32µM

Results for CCN(CC)C(=O)Cn1nnc(-c2ccc(C)o2)n1 ?
ALDH1A1 inh: 25µM; JMJD2E inh: inactive; LMNA splice mod: inactive; miR-21 reporter: inactive; Sfp PPTase inh: inactive; G9a inh: 4µM

Results for CCCC(C(=O)NC1CCCC1)N(C(=O)Cn1nnc(-c2ccc(C)o2)n1)C1CCCC1 (stereo not drawn) ?
ALDH1A1 inh: 25µM; JMJD2E inh: inactive; LMNA splice mod: inactive; miR-21 reporter: inactive; Sfp PPTase inh: inconclusive; G9a inh: 11µM

What do the screens show for `COc1ccc(CNC(=O)c2cn(-c3cccc(OC)c3)c(=O)c3ccccc23)cc1`?
LMNA splice mod: inactive; miR-21 reporter: inactive; G9a inh: inconclusive

Results for CCN1CCCC1CNC(=O)c1cc(COc2ccc(C)c(C)c2)on1 (stereo not drawn) ?
miR-21 reporter: inactive; Sfp PPTase inh: inactive; G9a inh: inactive

How did CC(=O)Nc1nc(CC(C)C)cc(-c2ccccc2)c1C#N do in these assays?
ALDH1A1 inh: inactive; JMJD2E inh: inactive; miR-21 reporter: inactive; Sfp PPTase inh: inactive

Results for CC(=O)Nc1nc(CC(C)C)cc(-c2ccco2)c1C#N ?
ALDH1A1 inh: inconclusive; JMJD2E inh: inconclusive; LMNA splice mod: inactive; miR-21 reporter: inactive; Sfp PPTase inh: inactive; G9a inh: 16µM

How did CCCCCOC(=O)c1ccc(OC(=O)c2sc3ncn(Cc4cccc(F)c4)c(=O)c3c2C)cc1 do in these assays?
LMNA splice mod: inactive; miR-21 reporter: inactive; G9a inh: inactive

What do the screens show for `CC(=O)C1C(c2cn(-c3ccccc3)nc2-c2cccs2)NC(=O)NC1(O)C(F)(F)F` (stereo not drawn)?
ALDH1A1 inh: 22µM; JMJD2E inh: inactive; LMNA splice mod: inactive; miR-21 reporter: inactive; Sfp PPTase inh: inactive; G9a inh: inactive

What do the screens show for `Cc1cc(NC(=O)CN2CCc3ccccc3C2)nc2c1c(=O)oc1ccccc12`?
ALDH1A1 inh: inconclusive; JMJD2E inh: inconclusive; miR-21 reporter: inactive; Sfp PPTase inh: inactive; G9a inh: 28µM

How did Cc1cc(NC(=O)CN2CCC(C)CC2)nc2c1c(=O)oc1ccccc12 do in these assays?
miR-21 reporter: inactive; G9a inh: inactive

Results for Clc1ccc2c(NCc3ccccn3)ncnc2c1 ?
ALDH1A1 inh: 3.5µM; JMJD2E inh: inconclusive; LMNA splice mod: inactive; miR-21 reporter: inactive; Sfp PPTase inh: inactive; G9a inh: inactive

Results for Cc1nc(-c2coc3c(O)c(O)ccc3c2=O)cs1 ?
ALDH1A1 inh: inactive; JMJD2E inh: 7.1µM; Sfp PPTase inh: inconclusive

What do the screens show for `COc1ccccc1CNC(=O)CCC1N=C2c3ccccc3N=C(SCC(N)=O)N2C1=O` (stereo not drawn)?
LMNA splice mod: inactive; miR-21 reporter: inactive; G9a inh: inactive

Results for COc1ccc(CN2CCN(S(=O)(=O)c3ccc(F)cc3)CC2)cc1OC ?
ALDH1A1 inh: inconclusive; JMJD2E inh: inconclusive; LMNA splice mod: inactive; miR-21 reporter: inactive; Sfp PPTase inh: inconclusive; G9a inh: 10µM

Results for COc1ccc(CN2CCN(S(=O)(=O)c3ccc(F)cc3)CC2)c(OC)c1OC ?
ALDH1A1 inh: inactive; JMJD2E inh: inconclusive; LMNA splice mod: inactive; miR-21 reporter: inactive; Sfp PPTase inh: inactive; G9a inh: 28µM

How did COc1ccc(CN2CCN(S(=O)(=O)c3ccc(NC(C)=O)cc3)CC2)cc1OC do in these assays?
ALDH1A1 inh: inconclusive; JMJD2E inh: inconclusive; LMNA splice mod: inconclusive; miR-21 reporter: inactive; Sfp PPTase inh: inconclusive; G9a inh: inconclusive

What do the screens show for `COc1ccc(CN2CCN(c3ccc(F)cc3)CC2)c(OC)c1OC`?
ALDH1A1 inh: inactive; JMJD2E inh: inactive; LMNA splice mod: inconclusive; miR-21 reporter: inactive; Sfp PPTase inh: inactive; G9a inh: inactive

Results for Cc1ccccc1CN1CCN(S(=O)(=O)c2ccc(F)cc2)CC1 ?
ALDH1A1 inh: inactive; JMJD2E inh: inconclusive; LMNA splice mod: inactive; miR-21 reporter: inactive; Sfp PPTase inh: inconclusive; G9a inh: 6.3µM

How did CCOc1cc(CN2CCN(S(=O)(=O)Cc3ccccc3)CC2)ccc1OC do in these assays?
miR-21 reporter: inactive; Sfp PPTase inh: inactive; G9a inh: inactive

How did CCOc1cc(CN2CCN(S(=O)(=O)c3ccc(C)cc3)CC2)ccc1OC do in these assays?
miR-21 reporter: inactive; G9a inh: 0.89µM

Results for N#CCCCSc1nnnn1-c1cc(C(F)(F)F)cc(C(F)(F)F)c1 ?
ALDH1A1 inh: inactive; JMJD2E inh: inconclusive; Sfp PPTase inh: inactive

How did O=C(NCc1ccccc1)C(=O)NCC(c1ccco1)S(=O)(=O)c1ccccc1 (stereo not drawn) do in these assays?
LMNA splice mod: inactive; miR-21 reporter: inactive; G9a inh: inactive

How did Cc1ccccc1CN1CCN(CC2CC3C=CC2C3)CC1 (stereo not drawn) do in these assays?
ALDH1A1 inh: inactive; JMJD2E inh: inconclusive; LMNA splice mod: inactive; miR-21 reporter: inactive; Sfp PPTase inh: 79µM; G9a inh: 3.2µM

Results for CC(=O)Nc1ccc(S(=O)(=O)Oc2ccc(C(=S)N3CCCCC3)cc2)cc1 ?
ALDH1A1 inh: 14µM; JMJD2E inh: inactive; LMNA splice mod: inconclusive; miR-21 reporter: inactive; Sfp PPTase inh: inactive; G9a inh: inconclusive

How did CC(=O)Nc1ccc(S(=O)(=O)Oc2ccc(C(=S)N3CCC(O)CC3)cc2)cc1 do in these assays?
ALDH1A1 inh: inactive; JMJD2E inh: inactive; LMNA splice mod: inconclusive; miR-21 reporter: inactive; Sfp PPTase inh: 56µM; G9a inh: 18µM

Results for Cn1cnc([N+](=O)[O-])c1N=C(N)N ?
ALDH1A1 inh: inactive; JMJD2E inh: inactive; LMNA splice mod: inactive; miR-21 reporter: inactive; Sfp PPTase inh: inactive; G9a inh: inactive

How did O=C(Nc1ccccc1F)c1cnccn1 do in these assays?
ALDH1A1 inh: inactive; JMJD2E inh: inactive; LMNA splice mod: inactive; miR-21 reporter: inactive; Sfp PPTase inh: inactive; G9a inh: inactive

What do the screens show for `O=C(Nn1cc(C(=O)Nc2ccc(F)cc2F)c2ccccc2c1=O)c1cnccn1`?
ALDH1A1 inh: inactive; JMJD2E inh: inconclusive; miR-21 reporter: inactive; Sfp PPTase inh: inactive; G9a inh: 0.79µM

What do the screens show for `Cc1cccc(C(=O)NCC(=O)OCc2cc(=O)n3nc(C4CCCCC4)sc3n2)c1`?
LMNA splice mod: inactive; miR-21 reporter: inactive; G9a inh: inactive
